Assay [1] deals with T1, acetylcholinesterase (Homo sapiens, UniProt P22303).
T1 construct: purchased Sigma-Aldrich (St. Louis, MO, USA)
As to the kind of experiment: Kinetic study of acetylcholinesterase inhibition (Lineweaver-Burk plots and replots). The class given is biochemical. The conditions noted are these: replot of Lineweaver-Burk slopes vs inhibitor concentration; substrate acetylthiocholine iodide. The procedure:
Lineweaver–Burk and Dixon plots were used for the determination of the type of inhibition and inhibition constants (Ki value) of these alkaloids. […] The Ki value was estimated from the replots of the slope of the individual Lineweaver–Burk plots versus the inhibitor concentrations (Figure 5B). […] The type of acetylcholinesterase inhibition and Ki value was determined for palmatine by the same method.

Protein sequences, listed by entry. Tags and fused reporters are not part of them. Residues count along the entry.
UniProt P22303, 32-614, species assumed: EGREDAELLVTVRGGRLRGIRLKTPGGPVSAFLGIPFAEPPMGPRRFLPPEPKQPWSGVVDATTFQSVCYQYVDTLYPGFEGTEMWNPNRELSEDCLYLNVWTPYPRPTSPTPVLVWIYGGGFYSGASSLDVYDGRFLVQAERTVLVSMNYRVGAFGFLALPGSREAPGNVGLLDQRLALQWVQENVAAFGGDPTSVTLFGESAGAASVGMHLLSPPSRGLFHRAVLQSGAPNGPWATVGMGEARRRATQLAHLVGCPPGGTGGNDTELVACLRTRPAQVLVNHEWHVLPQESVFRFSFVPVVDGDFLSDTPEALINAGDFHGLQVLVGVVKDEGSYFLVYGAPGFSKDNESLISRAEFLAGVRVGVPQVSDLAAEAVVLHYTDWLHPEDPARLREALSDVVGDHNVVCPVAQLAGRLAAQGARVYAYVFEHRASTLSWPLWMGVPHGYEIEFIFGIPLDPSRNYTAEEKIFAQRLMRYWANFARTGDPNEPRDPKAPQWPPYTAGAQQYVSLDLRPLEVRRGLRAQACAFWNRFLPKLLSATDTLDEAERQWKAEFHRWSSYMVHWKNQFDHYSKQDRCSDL
UniProt P06276, 29-602: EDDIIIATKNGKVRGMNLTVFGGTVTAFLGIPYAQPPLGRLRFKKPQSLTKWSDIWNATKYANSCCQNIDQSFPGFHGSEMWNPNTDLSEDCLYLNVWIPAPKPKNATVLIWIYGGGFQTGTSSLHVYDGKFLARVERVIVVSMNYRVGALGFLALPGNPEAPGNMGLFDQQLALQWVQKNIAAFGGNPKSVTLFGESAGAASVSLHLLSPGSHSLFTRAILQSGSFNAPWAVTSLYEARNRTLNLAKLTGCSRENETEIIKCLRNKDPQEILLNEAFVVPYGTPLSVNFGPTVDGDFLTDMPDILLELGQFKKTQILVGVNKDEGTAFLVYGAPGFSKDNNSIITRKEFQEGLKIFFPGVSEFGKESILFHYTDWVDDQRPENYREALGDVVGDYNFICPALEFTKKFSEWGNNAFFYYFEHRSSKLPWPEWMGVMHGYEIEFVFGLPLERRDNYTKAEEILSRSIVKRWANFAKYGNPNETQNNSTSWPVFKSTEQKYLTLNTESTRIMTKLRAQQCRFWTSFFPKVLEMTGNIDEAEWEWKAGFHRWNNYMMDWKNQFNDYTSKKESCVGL

In assay [2] the target is T1, acetylcholinesterase. As to the kind of experiment: biochemical. The conditions noted are these: IC50 Values Acetylcholinesterase. The procedure: (§1) All experiments were repeated three times.
S1. Samples preparation for determination of acetylcholinesterase inhibitory activity A stock solutions of reagents were prepared by dissolving of acetylcholinesterase at con-centrations 200 U/mL or 2 U/mL, acetylthiocholine iodide at concentration 0.0125 M and 5′- dithiobis-(2-nitrobenzoic acid) at concentration 0.00167 M in phosphate buffer at pH 7.8.
Samples for determination of acetylcholinesterase inhibitory activity were obtained by mixing of 50 µL of acetylthiocholine iodide, 50 µL of 5′-dithiobis-(2-nitrobenzoic acid), 50 µL of […]
as §1
All experiments were performed in triplicates.

The target in assay [3] is T1, acetylcholinesterase. The conditions noted are these: cited from earlier work.
The target of the next assay is T2, butyrylcholinesterase (Homo sapiens, UniProt P06276).
T2 construct: purchased Sigma-Aldrich (St. Louis, MO, USA)
Put plainly: Butyrylcholinesterase inhibition, Ellman method with HPLC-DAD. In kind it is biochemical. The conditions noted are these: alkaloid standards; 15 min at 37 °C, pH 7.8. On the technique in general: DTNB colorimetry detects thiols as they appear.

Converted amounts (≈) assume the structure as drawn. “And” between values parts separate entries of the source, which are not always exact repeats. Equal entries are not always repeated. Where two headings read alike, the source gives them in different places.

Broadly, the Ki is a dissociation constant, usually derived from enzyme kinetics or from competition with a known ligand. Higher therefore signals lower affinity. As usually defined, the IC50 is the concentration that inhibits the measured activity by half. The compound `COc1ccc2cc3[n+](cc2c1OC)CCc1cc2c(cc1-3)OCO2` [Berberine, berberine] displayed a Ki on acetylcholinesterase [1] of 1400 nM. Also, the IC50 on acetylcholinesterase [2] was 2040 nM and 2050 nM; at acetylcholinesterase [3], 6540 nM.
In the case of `CCN(C)C(=O)Oc1cccc([C@H](C)N(C)C)c1` [Rivastigmine, rivastigmine], the “IC50 Values Butyrylcholinesterase” value on butyrylcholinesterase came to 2.10 µg/mL (≈ 8.39 µM).

The values are drawn from PMC10933966, “In Vitro and In Silico of Cholinesterases Inhibition and In Vitro and In Vivo Anti-Melanoma Activity Investigations of Extracts Obtained from Selected Berberis Species” (Molecules, 2024).
